From publication PMC3926802 (Molecular pharmaceutics, 2012)
In brackets after ≈: the same amount, converted by molar mass.

Test: Thermodynamic solubility in water for injection
Type: physicochemical
Settings: water for injection (pH 6.4), 37 °C, 6 hours

## COc1c(N2CCNC(C)C2)c(F)cc2c(=O)c(C(=O)NCCCC(=O)O)cn(C3CC3)c12 (racemic) [CP-GFX, (±)-4-(1-cyclopropyl-6-fluoro-8-methoxy-7-(3-methylpiperazin-1-yl)-4-oxo-1,4-dihydroquinoline-3-carboxamido)butanoic acid]
  Solubility: 6 mM (≈ 2760 µg/mL)
